We go through two molecules from ChEMBL document CHEMBL1125222, “Activity of N6-substituted 2-chloroadenosines at A1 and A2 adenosine receptors” (J Med Chem, 1991).

By UniProt entry, the sequences of proteins in these tests, tags left out. Where a name states a change or a piece, a line headed by the entry shows the natural chain unless it says otherwise.
UniProt P30543, whole entry: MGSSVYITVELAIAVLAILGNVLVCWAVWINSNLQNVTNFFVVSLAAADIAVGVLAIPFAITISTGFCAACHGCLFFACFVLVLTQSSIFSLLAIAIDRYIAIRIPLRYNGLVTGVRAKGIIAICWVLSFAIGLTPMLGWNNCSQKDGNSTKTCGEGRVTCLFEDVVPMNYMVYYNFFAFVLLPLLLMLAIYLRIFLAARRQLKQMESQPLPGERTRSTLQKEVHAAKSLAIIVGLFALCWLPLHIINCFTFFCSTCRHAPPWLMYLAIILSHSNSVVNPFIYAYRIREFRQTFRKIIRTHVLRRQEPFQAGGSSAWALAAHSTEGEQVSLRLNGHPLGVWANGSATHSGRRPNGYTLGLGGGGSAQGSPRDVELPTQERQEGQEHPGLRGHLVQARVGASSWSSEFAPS
UniProt P29276: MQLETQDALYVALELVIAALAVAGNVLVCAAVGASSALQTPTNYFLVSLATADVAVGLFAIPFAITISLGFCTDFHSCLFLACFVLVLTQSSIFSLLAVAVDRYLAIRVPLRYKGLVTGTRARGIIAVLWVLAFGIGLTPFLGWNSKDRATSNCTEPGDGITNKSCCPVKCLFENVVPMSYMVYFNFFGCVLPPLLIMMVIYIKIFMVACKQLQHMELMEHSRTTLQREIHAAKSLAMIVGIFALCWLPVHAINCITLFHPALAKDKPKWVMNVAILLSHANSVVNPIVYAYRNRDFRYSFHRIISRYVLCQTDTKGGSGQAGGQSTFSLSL

For orientation: Ki means a measure of affinity in units of concentration, obtained from inhibition or displacement.

One assay deals with Adenosine receptor A2a (Rattus norvegicus, UniProt P30543). The experiment in a line: Inhibition of [3H]- NECA binding to adenosine receptor A2A.
In a further assay the target is Adenosine A2 receptor (Rattus norvegicus, UniProt P29276+P30543). Put plainly: Inhibition of [3H]- NECA binding to adenosine receptor A2. It is filed as protein assay.

Consider `C[C@@H](Cc1ccccc1)Nc1ncnc2c1ncn2[C@@H]1O[C@H](CO)[C@@H](O)[C@H]1O` [(S)-PIA], for which the Ki at Adenosine receptor A2a was found to be 3 µM.

On Adenosine A2 receptor, `C[C@H](Cc1ccccc1)Nc1ncnc2c1ncn2[C@@H]1O[C@H](CO)[C@@H](O)[C@H]1O` [(R)-PIA] showed an inhibition constant Ki of 0.22 µM.
